Species on record: Homo sapiens
Experiment: Selectivity ratio of pIC50 for human nAChR alpha3/beta4 receptor to pIC50 for human nAChR alpha4/beta2 receptor

Compound: COc1ccc(OCCCCCN2CCCC(COC(=O)c3ccccc3-c3ccccc3)C2)cc1 (stereo unspecified)
- Ratio pIC50: 0.19

From ChEMBL document CHEMBL1949658, “3D-QSAR and 3D-QSSR models of negative allosteric modulators facilitate the design of a novel selective antagonist of human α4β2 neuronal nicotinic acetylcholine receptors” (Bioorg Med Chem Lett, 2012)
